Measured values taken from ChEMBL document CHEMBL2375274, “Exploration of the structure-activity relationship of a novel tetracyclic class of TSPO ligands-potential novel positron emitting tomography imaging agents” (Bioorg Med Chem Lett, 2013).

Amino acid sequences for entries named in this document (tags omitted).
UniProt P16257, whole entry, looked up: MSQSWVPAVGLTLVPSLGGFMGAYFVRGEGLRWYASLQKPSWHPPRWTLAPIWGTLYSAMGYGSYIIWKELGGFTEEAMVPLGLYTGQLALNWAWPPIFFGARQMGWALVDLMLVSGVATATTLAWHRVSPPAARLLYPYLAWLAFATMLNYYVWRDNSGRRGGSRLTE

Target: Translocator protein (Rattus norvegicus, UniProt P16257)
Test: Displacement of [3H]PK11195 from PBR receptor in Wistar rat heart homogenates
Format: tissue-based
Procedure, shortened: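 Competition binding against [³H]PK11195 in homogenised rat heart tissue.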

Row | SMILES | Ki [nM]
1 | CCN(CC)C(=O)C1Sc2c(F)cccc2-c2c1c1ccccc1n2CCF (racemic) | 0.31
2 | CCN(CC)C(=O)C1Sc2cc(F)ccc2-c2c1c1ccccc1n2CCF (racemic) | 0.32
